Series [1] is filed under the species Homo sapiens. As to the kind of experiment: Metabolic stability in human plasma assessed as half life.
Series [2] is described as follows: Metabolic stability in rat plasma assessed as half life. Type of series: ADME, cell-free.

For `CN(C)CCn1c(=O)c(C#N)nn(-c2cccc(C(F)(F)F)c2)c1=O`, the half-life in series [1] and in series [2] was less than 5 min throughout.

In general, half-life refers to how long it takes for the measured level to halve.

The values above are taken from ChEMBL document CHEMBL1155375, “Dioxo-triazines as a novel series of cathepsin K inhibitors” (Bioorg Med Chem Lett, 2010).
